This passage reports IC50 results from US11547697B2, “Heterocyclic compounds and uses thereof” (MILLENNIUM PHARMACEUTICALS, INC., priority 2009, dated 2023).

By UniProt entry, the sequences of proteins in these tests, tags left out. Where a name states a change or a piece, a line headed by the entry shows the natural chain unless it says otherwise.
UniProt P42336, whole entry: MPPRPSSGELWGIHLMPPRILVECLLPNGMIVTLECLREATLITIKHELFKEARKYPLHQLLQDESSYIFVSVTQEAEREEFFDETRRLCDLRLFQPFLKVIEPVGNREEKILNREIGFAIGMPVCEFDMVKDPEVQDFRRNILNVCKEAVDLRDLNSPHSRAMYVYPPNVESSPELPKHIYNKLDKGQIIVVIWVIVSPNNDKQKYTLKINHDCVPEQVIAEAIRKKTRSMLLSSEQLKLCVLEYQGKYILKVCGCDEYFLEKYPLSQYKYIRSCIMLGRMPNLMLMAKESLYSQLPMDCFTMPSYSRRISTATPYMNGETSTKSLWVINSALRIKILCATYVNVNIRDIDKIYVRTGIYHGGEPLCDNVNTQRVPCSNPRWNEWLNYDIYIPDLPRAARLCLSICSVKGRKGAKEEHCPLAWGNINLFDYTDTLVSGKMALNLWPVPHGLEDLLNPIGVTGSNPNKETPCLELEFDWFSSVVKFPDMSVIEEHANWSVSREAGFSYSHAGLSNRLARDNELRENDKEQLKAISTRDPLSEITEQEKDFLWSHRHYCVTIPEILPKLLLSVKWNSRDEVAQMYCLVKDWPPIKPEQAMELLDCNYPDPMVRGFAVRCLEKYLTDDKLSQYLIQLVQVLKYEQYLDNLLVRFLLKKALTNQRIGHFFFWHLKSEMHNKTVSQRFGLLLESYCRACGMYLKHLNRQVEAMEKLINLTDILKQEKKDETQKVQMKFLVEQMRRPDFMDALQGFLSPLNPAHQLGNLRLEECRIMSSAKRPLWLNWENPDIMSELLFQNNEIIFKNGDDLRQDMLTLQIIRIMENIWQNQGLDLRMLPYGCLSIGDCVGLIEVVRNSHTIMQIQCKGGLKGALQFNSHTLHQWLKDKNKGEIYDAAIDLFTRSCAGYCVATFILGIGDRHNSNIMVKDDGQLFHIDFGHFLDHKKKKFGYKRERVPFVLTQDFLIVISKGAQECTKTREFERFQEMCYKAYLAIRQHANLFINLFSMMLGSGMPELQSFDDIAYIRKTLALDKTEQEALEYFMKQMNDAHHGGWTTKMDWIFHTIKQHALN
UniProt P42338, whole entry: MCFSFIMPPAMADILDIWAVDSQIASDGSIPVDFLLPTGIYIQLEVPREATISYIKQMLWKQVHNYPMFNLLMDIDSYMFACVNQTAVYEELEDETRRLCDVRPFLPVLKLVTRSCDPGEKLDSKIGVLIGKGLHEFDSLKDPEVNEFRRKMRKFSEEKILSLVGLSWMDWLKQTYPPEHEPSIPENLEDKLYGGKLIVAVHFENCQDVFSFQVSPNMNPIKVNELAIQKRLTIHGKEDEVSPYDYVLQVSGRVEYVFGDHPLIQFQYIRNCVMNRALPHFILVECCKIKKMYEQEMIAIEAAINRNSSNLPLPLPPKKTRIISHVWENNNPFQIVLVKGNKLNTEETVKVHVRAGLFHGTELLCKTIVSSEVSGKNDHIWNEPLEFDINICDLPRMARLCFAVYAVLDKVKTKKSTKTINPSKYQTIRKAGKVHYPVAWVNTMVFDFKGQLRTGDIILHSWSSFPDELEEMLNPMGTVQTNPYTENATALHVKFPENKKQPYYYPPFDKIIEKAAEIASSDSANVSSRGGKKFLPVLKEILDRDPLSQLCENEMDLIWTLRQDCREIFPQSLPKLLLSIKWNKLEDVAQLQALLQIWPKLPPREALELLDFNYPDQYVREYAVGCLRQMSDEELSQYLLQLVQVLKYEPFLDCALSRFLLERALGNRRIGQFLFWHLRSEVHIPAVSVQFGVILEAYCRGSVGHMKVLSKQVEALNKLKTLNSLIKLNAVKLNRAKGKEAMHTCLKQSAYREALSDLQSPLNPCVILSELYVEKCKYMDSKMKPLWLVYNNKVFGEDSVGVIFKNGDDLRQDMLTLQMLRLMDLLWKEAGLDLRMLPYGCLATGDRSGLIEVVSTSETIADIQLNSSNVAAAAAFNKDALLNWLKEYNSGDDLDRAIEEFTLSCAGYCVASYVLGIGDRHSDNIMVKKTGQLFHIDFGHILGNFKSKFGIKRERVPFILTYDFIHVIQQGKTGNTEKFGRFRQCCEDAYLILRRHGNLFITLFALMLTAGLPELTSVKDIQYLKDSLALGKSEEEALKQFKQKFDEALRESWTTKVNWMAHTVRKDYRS
UniProt P48736, whole entry: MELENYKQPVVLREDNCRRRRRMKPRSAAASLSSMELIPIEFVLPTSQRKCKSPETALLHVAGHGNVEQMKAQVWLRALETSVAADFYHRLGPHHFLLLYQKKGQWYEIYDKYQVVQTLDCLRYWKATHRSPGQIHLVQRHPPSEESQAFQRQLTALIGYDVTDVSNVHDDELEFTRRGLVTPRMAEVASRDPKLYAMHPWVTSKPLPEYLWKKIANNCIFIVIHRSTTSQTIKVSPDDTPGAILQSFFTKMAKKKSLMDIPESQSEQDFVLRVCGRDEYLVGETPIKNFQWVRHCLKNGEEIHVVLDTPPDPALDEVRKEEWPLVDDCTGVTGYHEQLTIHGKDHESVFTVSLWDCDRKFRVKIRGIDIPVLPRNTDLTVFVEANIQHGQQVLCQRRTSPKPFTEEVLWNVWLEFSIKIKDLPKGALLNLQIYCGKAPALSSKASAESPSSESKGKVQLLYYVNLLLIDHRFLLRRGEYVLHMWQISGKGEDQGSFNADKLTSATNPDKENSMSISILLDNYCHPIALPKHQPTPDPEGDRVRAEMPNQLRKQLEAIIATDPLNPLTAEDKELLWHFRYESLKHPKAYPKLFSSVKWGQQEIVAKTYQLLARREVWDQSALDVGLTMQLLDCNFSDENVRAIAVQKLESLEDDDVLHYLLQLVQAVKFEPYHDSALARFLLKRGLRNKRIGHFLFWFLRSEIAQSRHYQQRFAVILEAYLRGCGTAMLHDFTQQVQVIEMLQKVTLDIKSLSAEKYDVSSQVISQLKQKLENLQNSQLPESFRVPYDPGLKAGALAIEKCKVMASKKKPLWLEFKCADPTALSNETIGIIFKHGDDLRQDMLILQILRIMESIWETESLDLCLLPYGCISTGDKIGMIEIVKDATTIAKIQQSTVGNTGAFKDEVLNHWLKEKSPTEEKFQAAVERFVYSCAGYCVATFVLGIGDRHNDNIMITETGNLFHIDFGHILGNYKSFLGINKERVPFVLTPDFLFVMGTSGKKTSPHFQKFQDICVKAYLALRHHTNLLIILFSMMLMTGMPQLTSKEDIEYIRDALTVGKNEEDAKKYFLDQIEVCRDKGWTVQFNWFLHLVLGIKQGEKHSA
UniProt O00329, whole entry: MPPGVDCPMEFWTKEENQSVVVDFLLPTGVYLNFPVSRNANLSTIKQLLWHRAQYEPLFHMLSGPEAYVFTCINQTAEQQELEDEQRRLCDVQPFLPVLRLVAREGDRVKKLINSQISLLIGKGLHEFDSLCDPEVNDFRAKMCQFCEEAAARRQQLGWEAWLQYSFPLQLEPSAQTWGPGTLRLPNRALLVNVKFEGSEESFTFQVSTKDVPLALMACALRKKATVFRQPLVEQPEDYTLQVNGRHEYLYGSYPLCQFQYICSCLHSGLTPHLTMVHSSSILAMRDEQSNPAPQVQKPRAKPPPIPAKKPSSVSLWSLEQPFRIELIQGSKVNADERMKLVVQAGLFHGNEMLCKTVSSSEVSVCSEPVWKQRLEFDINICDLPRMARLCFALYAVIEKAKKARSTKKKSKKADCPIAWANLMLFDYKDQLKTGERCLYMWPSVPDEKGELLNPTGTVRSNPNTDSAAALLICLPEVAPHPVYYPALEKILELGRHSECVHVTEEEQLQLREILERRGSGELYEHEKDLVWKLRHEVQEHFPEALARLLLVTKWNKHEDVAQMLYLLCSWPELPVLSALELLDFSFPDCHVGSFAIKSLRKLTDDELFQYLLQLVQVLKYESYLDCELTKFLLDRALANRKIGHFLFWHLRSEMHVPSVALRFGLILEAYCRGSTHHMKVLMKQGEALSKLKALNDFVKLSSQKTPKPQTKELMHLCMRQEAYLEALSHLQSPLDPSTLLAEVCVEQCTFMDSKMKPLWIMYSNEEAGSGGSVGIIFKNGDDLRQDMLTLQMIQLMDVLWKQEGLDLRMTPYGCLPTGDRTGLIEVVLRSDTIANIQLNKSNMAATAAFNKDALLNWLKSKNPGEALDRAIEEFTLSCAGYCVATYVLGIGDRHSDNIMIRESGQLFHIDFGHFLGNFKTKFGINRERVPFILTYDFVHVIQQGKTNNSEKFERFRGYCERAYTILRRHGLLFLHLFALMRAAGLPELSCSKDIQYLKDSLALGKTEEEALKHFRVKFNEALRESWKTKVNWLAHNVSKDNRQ
UniProt P27986, whole entry partner: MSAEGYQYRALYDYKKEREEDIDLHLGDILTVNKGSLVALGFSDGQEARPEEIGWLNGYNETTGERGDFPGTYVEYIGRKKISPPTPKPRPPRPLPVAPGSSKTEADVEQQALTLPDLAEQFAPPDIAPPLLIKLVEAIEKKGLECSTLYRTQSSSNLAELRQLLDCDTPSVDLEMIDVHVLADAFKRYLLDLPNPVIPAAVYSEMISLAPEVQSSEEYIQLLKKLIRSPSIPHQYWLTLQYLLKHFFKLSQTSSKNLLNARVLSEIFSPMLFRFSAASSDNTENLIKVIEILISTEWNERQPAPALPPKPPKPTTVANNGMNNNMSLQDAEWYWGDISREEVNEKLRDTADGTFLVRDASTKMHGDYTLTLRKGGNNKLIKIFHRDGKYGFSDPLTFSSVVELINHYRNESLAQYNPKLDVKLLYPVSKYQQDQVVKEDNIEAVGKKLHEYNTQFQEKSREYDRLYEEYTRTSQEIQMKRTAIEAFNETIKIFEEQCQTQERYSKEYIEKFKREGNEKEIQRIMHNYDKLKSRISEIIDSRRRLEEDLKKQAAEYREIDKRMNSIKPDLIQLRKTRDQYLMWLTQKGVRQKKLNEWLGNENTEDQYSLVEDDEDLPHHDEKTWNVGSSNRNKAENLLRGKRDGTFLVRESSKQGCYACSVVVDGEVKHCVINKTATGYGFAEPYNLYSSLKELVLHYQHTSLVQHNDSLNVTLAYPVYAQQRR

The target of test [1] is p110α/p85α (Homo sapiens (Human), UniProt P42336). The test is described as follows: PI 3-Kinase (human) HTRF assay, p110α/p85α. The format is biochemical. As to conditions: read-out: PI3K α IC50. A general note: Time-resolved FRET reads energy transfer from a long-lived donor to a nearby acceptor.
The target in test [2] is p110β/p85α (Homo sapiens (Human), UniProt P42338). Put plainly: PI 3-Kinase (human) HTRF assay, p110β/p85α. The note with it: read-out: PI3K β IC50.
Test [3] deals with p110γ (Homo sapiens (Human), UniProt P48736). The test is described as follows: PI 3-Kinase (human) HTRF assay, p110γ. The note with it: read-out: PI3K γ IC50. The format is biochemical.
In test [4] the target is p110δ/p85α (Homo sapiens (Human), UniProt O00329). The test is described as follows: PI 3-Kinase (human) HTRF assay, p110δ/p85α. The format is biochemical. The note with it: read-out: PI3K δ IC50.

In general, IC50 refers to the concentration that gives 50% inhibition. As for `Nc1nc2cc(-c3ccc4ncn(-c5ccccc5)c4c3)ccc2o1`, the IC50 is less than 100 nM in test [1], less than 10000 nM in test [2] and less than 1000 nM in test [3].

In the case of `Nc1nc2cc(-c3ccc4ncc(-c5ccc(N6CCOCC6)nc5)n4c3)ccc2o1`, the IC50 is less than 100 nM in test [1], less than 1000 nM in test [2], less than 1000 nM in test [4] and less than 1000 nM in test [3].
